From ChEMBL document CHEMBL1153304, “2,4-Diaminopyridine delta-opioid receptor agonists and their associated hERG pharmacology” (Bioorg Med Chem Lett, 2009)

Tests used:
[1] = Selectivity for human recombinant DOR over mu opioid receptor
[2] = Selectivity for human recombinant DOR over kappa opioid receptor

Compound	fold change (FC) [1]	fold change (FC) [2]
CC(=O)N(c1ccccc1)C1CCN(c2cc(N)ccn2)CC1	50	50
COc1ccc(C(=O)N(c2cc(C)ccn2)C2CCN(c3cc(N)ccn3)CC2)cc1	50	50
Nc1ccnc(N2CCC(N(C(=O)C3CCCCC3)c3ccccn3)CC2)c1	50	50
COc1cccc(C(=O)N(c2ccccn2)C2CCN(c3cc(N)ccn3)CC2)c1	50	50
